In US20180016325:

Test system: MP-LAFG-PABC-(piperazinoBOR) LA-104 as antibody conjugate AAC-193

Work on human cathepsin B yielded a Percent cleavage pH 5 of 100% and a Percent cleavage pH 7.2 of 64%.
